From BindingDB's records for US10829480

Protein sequences, listed by entry. Tags and fused reporters are not part of them.
UniProt P41146, whole entry: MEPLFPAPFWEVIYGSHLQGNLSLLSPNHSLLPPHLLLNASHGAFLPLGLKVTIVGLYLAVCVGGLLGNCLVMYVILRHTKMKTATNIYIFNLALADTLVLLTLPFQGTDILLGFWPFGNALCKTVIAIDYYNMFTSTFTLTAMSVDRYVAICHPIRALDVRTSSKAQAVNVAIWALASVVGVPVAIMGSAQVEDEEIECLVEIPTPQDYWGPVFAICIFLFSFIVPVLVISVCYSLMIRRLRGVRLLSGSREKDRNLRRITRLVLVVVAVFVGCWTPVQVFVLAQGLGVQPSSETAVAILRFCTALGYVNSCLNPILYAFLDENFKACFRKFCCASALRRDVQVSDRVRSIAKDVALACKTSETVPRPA

Target: Nociceptin receptor (Homo sapiens, UniProt P41146)
Assay: ASSAY_NAME: Receptor Binding Assay DESCRIPTION: Mu-Opioid Peptide (hMOP): The hMOP receptor binding assay was performed as homogeneous SPA-assay (scintillation proximity assay) using the assay buffer 50 mM TRIS-HCl (pH 7.4) supplemented with 0.052 mg/ml bovine serum albumin (Sigma-Aldrich Co. St. Louis. Mo.). The final assay volume (250 μl/well) included 1 nM of [N-allyl-2.3-3H]naloxone as li

| SMILES | Ki [nM] |
| --- | --- |
| COc1ccc(CN2C[C@]3(CC[C@](c4ccccc4)(N(C)C)CC3)N(CC3CCCO3)C2=O)cc1 (stereo partly drawn) | 4 |
| CN(C)[C@]1(c2ccccc2)CC[C@]2(CC1)CN(Cc1cccc(C3CC3)c1)C(=O)N2 | 90.5 |
| CN(C)[C@]1(c2ccccc2)CC[C@]2(CC1)CN(Cc1cccc(S(C)(=O)=O)c1)C(=O)N2CC1CCC1 | 0.8 |
